Results: patent US20070054902A1, “Isoxazole derivatives as peroxisome proliferator-activated receptors agonists” (SHIONOGI & CO., LTD., priority 2003, published 2007)

Chains of the proteins cited; added tags and fusions are not shown.
UniProt P11712, whole entry: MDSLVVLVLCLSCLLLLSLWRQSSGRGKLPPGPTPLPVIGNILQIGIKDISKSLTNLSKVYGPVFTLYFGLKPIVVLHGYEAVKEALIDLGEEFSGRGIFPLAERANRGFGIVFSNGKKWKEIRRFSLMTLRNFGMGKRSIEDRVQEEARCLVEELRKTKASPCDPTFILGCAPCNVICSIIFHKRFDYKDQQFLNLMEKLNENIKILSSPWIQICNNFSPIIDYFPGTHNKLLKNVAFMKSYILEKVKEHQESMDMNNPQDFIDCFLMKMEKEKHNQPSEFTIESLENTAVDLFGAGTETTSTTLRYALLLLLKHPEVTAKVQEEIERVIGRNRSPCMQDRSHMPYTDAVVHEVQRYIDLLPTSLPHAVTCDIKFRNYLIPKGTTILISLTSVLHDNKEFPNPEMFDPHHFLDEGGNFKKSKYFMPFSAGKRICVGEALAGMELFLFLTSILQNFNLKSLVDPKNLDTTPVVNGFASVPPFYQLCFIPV

Biological target: CYP2C9 (Homo sapiens, UniProt P11712)
Experiment: Test for inhibition of CYP2C9 enzyme (tolbutamide 4-position hydration, human liver microsomes)
Details: human liver microsomes 0.25 mg/ml, 5 μM tolbutamide, 30 minutes, 37° C.; solvent control = 100%

For `Cc1cc(SCc2cc(-c3ccc(C(F)(F)F)cc3)on2)ccc1OCC(=O)O`, the “Residual activity (%) CYP2C9” value was 28%.
